From patent publication US20210040193A1 (BEIJING HANMI PHARMACEUTICAL, published 2021)

Chains of the proteins cited; added tags and fusions are not shown. A line that says so, or that is headed by a name, gives the form on record, which may keep a tag or linker.
UniProt P15692, other isoform, or with tags, fused parts or gaps limits assumed: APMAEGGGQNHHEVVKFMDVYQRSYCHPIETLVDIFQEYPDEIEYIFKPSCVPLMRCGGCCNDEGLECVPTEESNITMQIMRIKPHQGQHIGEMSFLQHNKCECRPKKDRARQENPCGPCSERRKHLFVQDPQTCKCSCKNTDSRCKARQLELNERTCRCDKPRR

B1: VEGF (G631) monoclonal antibody (antibody, V domains shown)
VH: EVQLVESGGGLVQPGGSLRLSCAASGFTISDYWIHWVRQAPGKGLEWVAGITPAGGYTYYADSVKGRFTISADTSKNTAYLQMNSLRAEDTAVYYCARFVFFLPYAMDYWGQGTLVTVSS
VL: DIQMTQSPSSLSASVGDRVTITCRASQDVSTAVAWYQQKPGKAPKLLIYSASFLYSGVPSRFSGSGSGTDFTLTISSLQPEDFATYYCQQGYGNPFTFGQGTKVEIK
notes: Control monoclonal antibody; Variable regions derived from US20060280747; also called anti-human VEGF antibody VEGF (G631)
B2: anti PD-1(BJHM)/VEGF(Bevaci) heterodimeric antibody (bispecific antibody, human IgG1, kappa, N297A)
heavy 1: EVNLVESGGGLVQPGGSLRLSCAASGFTFSSYGMSWVRQAPGKGLEWVASISGGGRYTYYPDSMKGRFTISRDNSKNNLYLQMNSLRAEDTAVYYCVYEYFYTMDYWGQGTLVTVSSASTKGPSVFPLAPSSKSTSGGTAALGCLVKDYFPEPVTVSWNSGALTSGVHTFPAVLQSSGLYSLSSVVTVPSSSLGTQTYICNVNHKPSNTKVDKKVEPKSCDKTHTCPPCPAPELLGGPSVFLFPPKPKDTLMISRTPEVTCVVVDVSHEDPEVKFNWYVDGVEVHNAKTKPREEQYASTYRVVSVLTVLHQDWLNGKEYKCKVSNKALPAPIEKTISKAKGQPREPQVYTLPPSRDELTKNQVSLLCLVKGFYPSDIAVEWESNGQPENNYKTTPPVLRSDGSFFLYSKLTVDKSRWQQGNVFSCSVMHEALHNHYTQKSLSLSPGK
light 1: DIVLTQSPATLSLSPGERATLSCRASQSISNNLHWYQQKPGQAPRLLIRFASQSISGIPARFSGSGSGTDFTLTISSLEPEDFAVYFCQQSDNWPLTFGGGTKVEIKRTVAAPSVFIFPPSDEQLKSGTASVVCLLNNFYPREAKVQWKVDNALQSGNSQESVTEQDSKDSTYSLSSTLTLSKADYEKHKVYACEVTHQGLSSPVTKSFNRGEC
heavy 2: EVQLVESGGGLVQPGGSLRLSCAASGYTFTNYGMNWVRQAPGKGLEWVGWINTYTGEPTYAADFKRRFTFSLDTSKSTAYLQMNSLRAEDTAVYYCAKYPHYYGSSHWYFDVWGQGTLVTVSSASTKGPSVFPLAPSSKSTSGGTAALGCLVKDYFPEPVTVSWNSGALTSGVHTFPAVLQSSGLYSLSSVVTVPSSSLGTQTYICNVNHKPSNTKVDKKVEPKSCDKTHTCPPCPAPELLGGPSVFLFPPKPKDTLMISRTPEVTCVVVDVSHEDPEVKFNWYVDGVEVHNAKTKPREEQYASTYRVVSVLTVLHQDWLNGKEYKCKVSNKALPAPIEKTISKAKGQPREPQVYTEPPSRDELTKNQVSLTCLVKGFYPSDIAVEWESNGQPENNYKTTPPVLDSDGSFFLLSVLTVDKSRWQQGNVFSCSVMHEALHNHYTQKSLSLSPGK
light 2: not shown
B3: anti-PD-1 (Pembro)/VEGF (G631) heterodimeric antibody (bispecific antibody, human IgG1, kappa, N297A)
heavy 1: QVQLVQSGVEVKKPGASVKVSCKASGYTFTNYYMYWVRQAPGQGLEWMGGINPSNGGTNFNEKFKNRVTLTTDSSTTTAYMELKSLQFDDTAVYYCARRDYRFDMGFDYWGQGTTVTVSSASTKGPSVFPLAPSSKSTSGGTAALGCLVKDYFPEPVTVSWNSGALTSGVHTFPAVLQSSGLYSLSSVVTVPSSSLGTQTYICNVNHKPSNTKVDKKVEPKSCDKTHTCPPCPAPELLGGPSVFLFPPKPKDTLMISRTPEVTCVVVDVSHEDPEVKFNWYVDGVEVHNAKTKPREEQYASTYRVVSVLTVLHQDWLNGKEYKCKVSNKALPAPIEKTISKAKGQPREPQVYTLPPSRDELTKNQVSLLCLVKGFYPSDIAVEWESNGQPENNYKTTPPVLRSDGSFFLYSKLTVDKSRWQQGNVFSCSVMHEALHNHYTQKSLSLSPGK
light 1: EIVLTQSPATLSLSPGERATLSCRASKGVSTSGYSYLHWYQQKPGQAPRLLIYLASYLESGVPARFSGSGSGTDFTLTISSLEPEDFAVYYCQHSRDLPLTFGGGTKVEIKRTVAAPSVFIFPPSDEQLKSGTASVVCLLNNFYPREAKVQWKVDNALQSGNSQESVTEQDSKDSTYSLSSTLTLSKADYEKHKVYACEVTHQGLSSPVTKSFNRGEC
heavy 2: EVQLVESGGGLVQPGGSLRLSCAASGFTISDYWIHWVRQAPGKGLEWVAGITPAGGYTYYADSVKGRFTISADTSKNTAYLQMNSLRAEDTAVYYCARFVFFLPYAMDYWGQGTLVTVSSASTKGPSVFPLAPSSKSTSGGTAALGCLVKDYFPEPVTVSWNSGALTSGVHTFPAVLQSSGLYSLSSVVTVPSSSLGTQTYICNVNHKPSNTKVDKKVEPKSCDKTHTCPPCPAPELLGGPSVFLFPPKPKDTLMISRTPEVTCVVVDVSHEDPEVKFNWYVDGVEVHNAKTKPREEQYASTYRVVSVLTVLHQDWLNGKEYKCKVSNKALPAPIEKTISKAKGQPREPQVYTEPPSRDELTKNQVSLTCLVKGFYPSDIAVEWESNGQPENNYKTTPPVLDSDGSFFLLSVLTVDKSRWQQGNVFSCSVMHEALHNHYTQKSLSLSPGK
light 2: not shown
notes: Heterodimer of two half antibodies; it is not spelled out for this molecule; also called anti-PD-1 (Pembro)/VEGF (G631) heterodimer antibody
B4: anti-PD-1 (BJHM)/VEGF (G631) heterodimeric antibody (bispecific antibody, human IgG1, kappa, N297A)
heavy 1: EVNLVESGGGLVQPGGSLRLSCAASGFTFSSYGMSWVRQAPGKGLEWVASISGGGRYTYYPDSMKGRFTISRDNSKNNLYLQMNSLRAEDTAVYYCVYEYFYTMDYWGQGTLVTVSSASTKGPSVFPLAPSSKSTSGGTAALGCLVKDYFPEPVTVSWNSGALTSGVHTFPAVLQSSGLYSLSSVVTVPSSSLGTQTYICNVNHKPSNTKVDKKVEPKSCDKTHTCPPCPAPELLGGPSVFLFPPKPKDTLMISRTPEVTCVVVDVSHEDPEVKFNWYVDGVEVHNAKTKPREEQYASTYRVVSVLTVLHQDWLNGKEYKCKVSNKALPAPIEKTISKAKGQPREPQVYTLPPSRDELTKNQVSLLCLVKGFYPSDIAVEWESNGQPENNYKTTPPVLRSDGSFFLYSKLTVDKSRWQQGNVFSCSVMHEALHNHYTQKSLSLSPGK
light 1: DIVLTQSPATLSLSPGERATLSCRASQSISNNLHWYQQKPGQAPRLLIRFASQSISGIPARFSGSGSGTDFTLTISSLEPEDFAVYFCQQSDNWPLTFGGGTKVEIKRTVAAPSVFIFPPSDEQLKSGTASVVCLLNNFYPREAKVQWKVDNALQSGNSQESVTEQDSKDSTYSLSSTLTLSKADYEKHKVYACEVTHQGLSSPVTKSFNRGEC
heavy 2: EVQLVESGGGLVQPGGSLRLSCAASGFTISDYWIHWVRQAPGKGLEWVAGITPAGGYTYYADSVKGRFTISADTSKNTAYLQMNSLRAEDTAVYYCARFVFFLPYAMDYWGQGTLVTVSSASTKGPSVFPLAPSSKSTSGGTAALGCLVKDYFPEPVTVSWNSGALTSGVHTFPAVLQSSGLYSLSSVVTVPSSSLGTQTYICNVNHKPSNTKVDKKVEPKSCDKTHTCPPCPAPELLGGPSVFLFPPKPKDTLMISRTPEVTCVVVDVSHEDPEVKFNWYVDGVEVHNAKTKPREEQYASTYRVVSVLTVLHQDWLNGKEYKCKVSNKALPAPIEKTISKAKGQPREPQVYTEPPSRDELTKNQVSLTCLVKGFYPSDIAVEWESNGQPENNYKTTPPVLDSDGSFFLLSVLTVDKSRWQQGNVFSCSVMHEALHNHYTQKSLSLSPGK
light 2: not shown

Experiments:
[1] = target: T1, human VEGF (Beijing Sino Biological Inc., Catalog No. 11066-HNAH) (human, UniProt P15692-4 27-191); test: ELISA, human VEGF coated on the plate, anti-human IgG-HRP detection; control
T1 construct: Bought recombinant protein; also called Recombinant human VEGF

[2] = target: T1, human VEGF (Beijing Sino Biological …); test: ELISA, human VEGF coated on the plate, anti-human IgG-HRP detection

Binder | binding result [1] | binding result [2]
B1 | binds | –
B2 | – | binds
B3 | – | binds
B4 | – | binds
